Data as given in paper PMC9837035 (Nature Communications, 2023).

Tests used:
[1] = molecular target: T1, NSD2 (E1099K) (Homo sapiens, UniProt O96028, E1099K); assay: biochemical
T1 sequence (O96028 1-1365 E1099K): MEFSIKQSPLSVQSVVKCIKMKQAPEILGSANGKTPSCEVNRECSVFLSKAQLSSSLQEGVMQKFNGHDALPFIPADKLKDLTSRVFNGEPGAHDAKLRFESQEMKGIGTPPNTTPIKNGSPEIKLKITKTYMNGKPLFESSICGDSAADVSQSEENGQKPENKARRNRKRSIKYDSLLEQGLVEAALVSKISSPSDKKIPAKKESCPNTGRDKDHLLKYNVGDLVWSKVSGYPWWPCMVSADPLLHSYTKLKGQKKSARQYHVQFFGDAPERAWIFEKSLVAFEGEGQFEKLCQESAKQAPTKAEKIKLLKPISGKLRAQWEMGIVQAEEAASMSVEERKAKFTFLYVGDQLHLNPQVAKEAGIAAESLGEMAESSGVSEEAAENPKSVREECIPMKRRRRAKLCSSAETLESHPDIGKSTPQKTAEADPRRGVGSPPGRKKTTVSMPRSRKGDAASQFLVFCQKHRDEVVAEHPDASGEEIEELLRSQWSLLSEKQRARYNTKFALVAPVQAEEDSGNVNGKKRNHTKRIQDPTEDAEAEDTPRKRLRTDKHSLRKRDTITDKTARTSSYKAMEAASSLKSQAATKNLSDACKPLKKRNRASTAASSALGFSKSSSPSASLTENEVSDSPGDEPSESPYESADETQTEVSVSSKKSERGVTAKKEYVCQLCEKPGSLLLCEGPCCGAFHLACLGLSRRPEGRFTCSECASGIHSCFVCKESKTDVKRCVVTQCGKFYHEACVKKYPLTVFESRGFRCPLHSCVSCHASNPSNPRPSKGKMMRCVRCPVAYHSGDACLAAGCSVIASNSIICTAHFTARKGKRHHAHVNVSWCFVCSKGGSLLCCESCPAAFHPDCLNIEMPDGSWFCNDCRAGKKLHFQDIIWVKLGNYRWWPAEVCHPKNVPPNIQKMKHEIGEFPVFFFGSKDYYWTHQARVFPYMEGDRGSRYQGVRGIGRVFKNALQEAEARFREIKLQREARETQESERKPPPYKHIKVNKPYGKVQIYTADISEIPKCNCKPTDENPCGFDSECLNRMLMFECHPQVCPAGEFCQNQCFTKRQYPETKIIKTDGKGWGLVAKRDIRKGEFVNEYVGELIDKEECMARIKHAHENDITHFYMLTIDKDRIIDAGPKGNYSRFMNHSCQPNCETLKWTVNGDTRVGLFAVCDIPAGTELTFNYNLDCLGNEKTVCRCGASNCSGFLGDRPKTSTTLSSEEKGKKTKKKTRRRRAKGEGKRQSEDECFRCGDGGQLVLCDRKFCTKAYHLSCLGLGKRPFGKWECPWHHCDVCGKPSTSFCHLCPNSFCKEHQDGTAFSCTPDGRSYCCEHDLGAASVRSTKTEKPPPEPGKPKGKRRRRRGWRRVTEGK

[2] = molecular target: T1, NSD2 (E1099K); assay: Radioisotope-based methyltransferase assay (selectivity); details: 1 μM SAM
[3] = molecular target: T2, NSD2 (Homo sapiens, UniProt O96028); assay: as above; details: IC50, NSD2, 1 μM SAM
T2 sequence (O96028 1-1365): T1 sequence (O96028 1-1365 E1099K) with K1099E

Nc1ncnc2c1ncn2[C@@H]1O[C@H](CSCC[C@H](N)C(=O)O)[C@@H](O)[C@H]1O [SAH, S-(5'-Adenosyl)-L-homocysteine, reference compound]
IC50 [1]: 6.51 µM | IC50 [2]: 6.5 µM | IC50 [3]: 3.3 µM

Substitutions are numbered along the chain they refer to.
